Molecular target: recombinant human Myt1 (Homo sapiens (Human), UniProt Q99640)
Test: Myt1 enzymatic assay (ADP-Glo kinase assay)
Conditions: read-out: Myt1 IC50, recombinant human Myt1 18 nM, ATP 10 μM

Protein sequences, listed by entry. Tags and fused reporters are not part of them.
UniProt Q99640, whole entry: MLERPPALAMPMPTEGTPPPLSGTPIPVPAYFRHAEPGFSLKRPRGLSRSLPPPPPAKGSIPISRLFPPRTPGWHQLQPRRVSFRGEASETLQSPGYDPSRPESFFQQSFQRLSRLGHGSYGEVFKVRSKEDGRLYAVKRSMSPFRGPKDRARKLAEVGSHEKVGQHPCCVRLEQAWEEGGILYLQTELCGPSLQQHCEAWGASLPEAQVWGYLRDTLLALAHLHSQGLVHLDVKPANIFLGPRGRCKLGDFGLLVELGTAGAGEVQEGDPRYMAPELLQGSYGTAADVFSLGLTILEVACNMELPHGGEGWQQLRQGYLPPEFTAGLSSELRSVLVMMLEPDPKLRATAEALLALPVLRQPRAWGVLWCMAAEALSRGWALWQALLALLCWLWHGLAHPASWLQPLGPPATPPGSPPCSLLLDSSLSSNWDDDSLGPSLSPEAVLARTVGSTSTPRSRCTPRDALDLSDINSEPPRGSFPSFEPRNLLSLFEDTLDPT

IC50 [nM] | SMILES
11 | Nc1c(-c2cccc3[nH]ncc23)cc(-c2nccs2)c2nc(-c3nccs3)[nH]c(=O)c12
3 | CO[C@H](C)COc1cccc(-c2cc(-c3cccc4[nH]ncc34)c(N)c3c(=O)[nH]c(-c4ccncc4)nc23)n1

From US20230348456A1, “QUINAZOLINONES, PHARMACEUTICAL COMPOSITIONS CONTAINING THE SAME, AND METHODS OF USING THE SAME” (Repare Therapeutics Inc., priority 2022, published 2023)
